This test relates to H3122 EML4-ALK translocated NSCLC cancer cell line. Briefly: Cell viability assay with TAE684 or crizotinib and HGF. It is filed as cell-based, Human. To be noted: crizotinib, 50 ng/mL HGF, 72 h. The procedure:
Error bars represent mean+/−s.e.m.
Cell viability was assessed using the nucleic acid stain Syto 60 (Invitrogen). Cells (3000-5000 per well) were seeded into 96 well plates and allowed to adhere overnight. The next day, cells were treated with (or without) 50 ng/mL RTK ligand and concomitantly exposed to an increasing concentration range of the relevant kinase inhibitor. […] Cell viability was calculated by dividing the fluorescence obtained from the drug-treated cells by the fluorescence obtained from the control (no drug) treated cells.

Take `C[C@@H](Oc1cc(-c2cnn(C3CCNCC3)c2)cnc1N)c1c(Cl)ccc(F)c1Cl` [crizotinib, 3-[(1R)-1-(2,6-dichloro-3-fluorophenyl)ethoxy]-5-(1-piperidin-4-ylpyrazol-4-yl)pyridin-2-amine]: the “suppression of cell survival in presence of HGF” value is given as “efficiently suppressed even in the presence of HGF”.

The record behind these values is patent publication US20150125452A1, “COMBINATION TREATMENTS COMPRISING C-MET ANTAGONISTS AND B-RAF ANTAGONISTS” (GENENTECH, INC., priority 2011, published 2015).
